Test results from ChEMBL document CHEMBL1156686, “Xanthine oxidase-activated prodrugs of thymidine phosphorylase inhibitors” (Eur J Med Chem, 2008).

Substrate: Cc1cn([C@H]2C[C@H](O)[C@@H](CO)O2)c(=O)[nH]c1=O
Experiment: Activity of Escherichia coli thymidine phosphorylase
Procedure, shortened: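 Recombinant E. coli TP (0.00883 U per 0.2 ml) added to start a continuous spectrophotometric assay. Mix: 0.13 mM 5-nitro-2'-deoxyuridine substrate in 0.1 M potassium phosphate, pH 7.4, 25 °C, read at 355 nm in a microplate. Initial velocity compared with the mean of at least two no-inhibitor controls. Where derived, IC50 used at least five concentrations spanning the value.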

B1: Thymidine phosphorylase (Escherichia coli K-12), P07650 (protein)
chain: MFLAQEIIRKKRDGHALSDEEIRFFINGIRDNTISEGQIAALAMTIFFHDMTMPERVSLTMAMRDSGTVLDWKSLHLNGPIVDKHSTGGVGDVTSLMLGPMVAACGGYIPMISGRGLGHTGGTLDKLESIPGFDIFPDDNRFREIIKDVGVAIIGQTSSLAPADKRFYATRDITATVDSIPLITASILAKKLAEGLDALVMDVKVGSGAFMPTYELSEALAEAIVGVANGAGVRTTALLTDMNQVLASSAGNAVEVREAVQFLTGEYRNPRLFDVTMALCVEMLISGKLAKDDAEARAKLQAVLDNGKAAEVFGRMVAAQKGPTDFVENYAKYLPTAMLTKAVYADTEGFVSEMDTRALGMAVVAMGGGRRQASDTIDYSVGFTDMARLGDQVDGQRPLAVIHAKDENNWQEAAKAVKAAIKLADKAPESTPTVYRRISE
For B1, which kcat is on record?
Its kcat is 1770 s⁻¹.
